Literature values in article PMC4033579 (Journal of experimental therapeutics & oncology, 2012).

System: lung tumor cells
Conditions: lung cells in culture

N#CC[C@H](C1CCCC1)n1cc(-c2ncnc3[nH]ccc23)cn1 [ruxolitinib]
cytotoxicity at concentrations that inhibit Tyr705 phosphorylation: not cytotoxic
